Target: E3 ubiquitin-protein ligase CBL-B (Homo sapiens, UniProt Q13191)
Assay: Inhibition of biotinylated recombinant Cbl-b (36 to 427 residues)(unknown origin) expressed in Escherichia coli BL21(DE3) measured for 1 hr by TR-FRET assay

The chains behind the UniProt entries cited, without tags or fusion partners.
UniProt Q13191, whole entry: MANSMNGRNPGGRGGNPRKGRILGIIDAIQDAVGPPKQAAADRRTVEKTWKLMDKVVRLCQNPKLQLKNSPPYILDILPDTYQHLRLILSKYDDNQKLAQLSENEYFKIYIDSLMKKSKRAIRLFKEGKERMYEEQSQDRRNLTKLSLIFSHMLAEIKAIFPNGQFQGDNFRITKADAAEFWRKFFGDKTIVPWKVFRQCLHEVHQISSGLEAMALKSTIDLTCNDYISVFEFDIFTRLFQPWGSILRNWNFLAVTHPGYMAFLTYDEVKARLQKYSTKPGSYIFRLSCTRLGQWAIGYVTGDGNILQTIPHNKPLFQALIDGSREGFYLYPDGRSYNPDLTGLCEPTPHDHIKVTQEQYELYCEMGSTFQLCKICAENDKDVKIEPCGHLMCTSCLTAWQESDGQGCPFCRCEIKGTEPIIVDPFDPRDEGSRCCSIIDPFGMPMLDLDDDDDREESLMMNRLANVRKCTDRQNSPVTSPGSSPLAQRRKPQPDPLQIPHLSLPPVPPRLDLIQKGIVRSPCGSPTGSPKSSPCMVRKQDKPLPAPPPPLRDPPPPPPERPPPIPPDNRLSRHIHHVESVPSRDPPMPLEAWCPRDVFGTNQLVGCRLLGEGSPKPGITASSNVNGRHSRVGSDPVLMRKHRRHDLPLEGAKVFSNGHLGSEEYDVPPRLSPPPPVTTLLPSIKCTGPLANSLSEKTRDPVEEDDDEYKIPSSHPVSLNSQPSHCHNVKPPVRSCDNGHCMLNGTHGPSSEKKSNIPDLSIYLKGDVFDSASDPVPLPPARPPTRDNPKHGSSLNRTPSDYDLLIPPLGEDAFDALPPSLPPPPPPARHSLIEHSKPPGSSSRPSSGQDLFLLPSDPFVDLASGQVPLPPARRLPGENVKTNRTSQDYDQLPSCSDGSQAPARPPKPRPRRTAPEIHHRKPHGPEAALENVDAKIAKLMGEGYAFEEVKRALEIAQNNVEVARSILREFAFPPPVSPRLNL

Q: With `C[C@@H](c1cnn(C)c1)n1cc(C(F)(F)F)cc(-c2cccc([C@]3(c4nncn4C)C[C@@H](C)C3)c2)c1=O` as the molecule, how does the IC50 read?
A: The IC50 was 30 nM.

Source: ChEMBL document CHEMBL5550096, “Casitas b cell lymphoma‑B (Cbl-b): A new therapeutic avenue for small-molecule immunotherapy” (Bioorg Med Chem, 2024)
